Target: myeloperoxidase (Homo sapiens, UniProt P05164)
Test: NADH2-NDGA-myeloperoxidase spectrophotometric assay of sputum / oral fluid-cell harvest supernatant extracts
Format: biochemical
Details: read-out: concentration that produces fifty (50) percent inhibition of myeloperoxidase

Chains of the proteins cited; added tags and fusions are not shown. Residues count along the entry.
UniProt P05164, 49-745 limits assumed: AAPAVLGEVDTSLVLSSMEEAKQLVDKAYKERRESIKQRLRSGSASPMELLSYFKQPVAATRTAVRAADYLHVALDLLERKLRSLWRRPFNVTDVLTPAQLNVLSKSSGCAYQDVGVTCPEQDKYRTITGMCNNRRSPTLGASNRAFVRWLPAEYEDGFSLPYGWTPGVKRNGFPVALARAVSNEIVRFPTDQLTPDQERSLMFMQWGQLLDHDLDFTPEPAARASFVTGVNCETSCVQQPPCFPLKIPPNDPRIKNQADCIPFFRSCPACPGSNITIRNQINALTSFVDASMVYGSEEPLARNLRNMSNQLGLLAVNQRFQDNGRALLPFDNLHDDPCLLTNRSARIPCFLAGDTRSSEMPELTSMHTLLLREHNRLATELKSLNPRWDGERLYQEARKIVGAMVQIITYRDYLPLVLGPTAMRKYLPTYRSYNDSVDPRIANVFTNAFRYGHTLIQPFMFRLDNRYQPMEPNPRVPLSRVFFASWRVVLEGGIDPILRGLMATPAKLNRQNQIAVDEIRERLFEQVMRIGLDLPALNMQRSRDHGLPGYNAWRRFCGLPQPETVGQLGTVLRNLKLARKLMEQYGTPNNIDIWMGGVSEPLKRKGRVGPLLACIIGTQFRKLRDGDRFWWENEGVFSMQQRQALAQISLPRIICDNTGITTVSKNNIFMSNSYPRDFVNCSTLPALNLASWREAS

[N-]=[N+]=[N-]
IC50: 1600 µM

From patent publication US6796312B2, “Process and apparatus for the removal of toxic components of tobacco smoke and the standardization of the health hazards related to those components” (priority 2001, dated 2004)
